The target in one test is CLR/RAMP2 receptor (Homo sapiens, UniProt O60895+Q16602). Nature of the test: CLR/RAMP2 arrestin receptor activation assay (agonist). Format: cell-based. Also noted: host or cells: CHO-K1 cells. The following applies: CHO-K1 cells stably expressing CLR/RAMP2, positive control ADM, read-out: CLR/RAMP 2 EC50.
The target of another test is CLR/RAMP1 receptor (Homo sapiens, UniProt O60894+Q16602). The experiment in a line: CLR/RAMP1 cAMP receptor activation assay (agonist). The settings on record: 1321N1 cells stably expressing CLR/RAMP1, positive control β-CGRP, read-out: CLR/RAMP 1 EC50. In kind it is cell-based. Further details: host or cells: 1321N1 cells.

Sequences of proteins named here, by UniProt entry; tags and fusion partners are left off. Residues count along the entry.
UniProt O60895, 43-175: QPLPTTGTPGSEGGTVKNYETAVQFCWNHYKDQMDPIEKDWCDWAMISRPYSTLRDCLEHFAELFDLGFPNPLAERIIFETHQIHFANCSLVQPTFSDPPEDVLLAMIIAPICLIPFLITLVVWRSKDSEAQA
UniProt Q16602, 23-461: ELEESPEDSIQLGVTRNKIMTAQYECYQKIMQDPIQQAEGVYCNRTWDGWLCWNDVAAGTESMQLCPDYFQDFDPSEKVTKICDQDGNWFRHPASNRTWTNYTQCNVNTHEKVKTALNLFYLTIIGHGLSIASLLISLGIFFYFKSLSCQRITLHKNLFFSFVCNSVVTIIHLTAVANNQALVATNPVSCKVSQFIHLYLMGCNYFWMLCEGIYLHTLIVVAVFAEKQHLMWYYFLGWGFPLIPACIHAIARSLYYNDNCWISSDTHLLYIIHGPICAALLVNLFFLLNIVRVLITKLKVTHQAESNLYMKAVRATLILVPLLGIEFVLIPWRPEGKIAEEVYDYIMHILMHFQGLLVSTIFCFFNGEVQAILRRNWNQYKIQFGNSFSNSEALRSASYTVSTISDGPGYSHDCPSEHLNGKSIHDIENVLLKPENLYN
UniProt O60894, 27-148: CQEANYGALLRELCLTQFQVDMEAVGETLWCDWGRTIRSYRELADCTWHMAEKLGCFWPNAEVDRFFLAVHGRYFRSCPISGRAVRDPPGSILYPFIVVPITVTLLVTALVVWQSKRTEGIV

EC50 data for two compounds are collected here from US20220340633A1 (Adepthera LLC, priority 2016, published 2022).

On to `CCCCCCCCCCCCCCCC(=O)NCCCC[C@H](NC(=O)COCCOCCN)C(=O)NCC(=O)N[C@H]1CSSC[C@@H](C(=O)N[C@H](C(=O)N[C@H](C(=O)N[C@@H](CCC(N)=O)C(=O)N[C@@H](CCCCN)C(=O)N[C@@H](CC(C)C)C(=O)N[C@@H](C)C(=O)N[C@@H](Cc2c[nH]cn2)C(=O)N[C@@H](CCC(N)=O)C(=O)N[C@H](C(=O)N[C@@H](Cc2ccc(O)cc2)C(=O)N[C@@H](CCC(N)=O)C(=O)N[C@@H](Cc2ccccc2)C(=O)N[C@H](C(=O)N[C@@H](CC(=O)O)C(=O)N[C@@H](CCCCN)C(=O)N[C@@H](CC(=O)O)C(=O)N[C@@H](CCCCN)C(=O)N[C@@H](CC(=O)O)C(=O)N[C@@H](CO)C(=O)N[C@@H](C)C(=O)N2CCC[C@H]2C(=O)N[C@H](C(=O)N[C@@H](CC(=O)O)C(=O)N2CCC[C@H]2C(=O)N[C@@H](CO)C(=O)N[C@@H](CO)C(=O)N2CCC[C@H]2C(=O)N[C@@H](Cc2c[nH]cn2)C(=O)N[C@@H](CO)C(=O)N[C@@H](Cc2ccc(O)cc2)C(N)=O)C(C)C)[C@@H](C)O)[C@@H](C)CC)C(C)C)[C@@H](C)O)NC(=O)[C@H]([C@@H](C)O)NC(=O)CNC(=O)[C@H](Cc2ccccc2)NC(=O)[C@H](CCCNC(=N)N)NC1=O` [SEQ ID NO: 46], for which the EC50 at CLR/RAMP2 receptor was determined as 0.5 nM.
Turning to `CCCCCCCCCCCCCCCC(=O)NCCCC[C@H](NC(=O)COCCOCCN)C(=O)NCC(=O)N[C@H]1CSSC[C@@H](C(=O)N[C@H](C(=O)N[C@H](C(=O)N[C@@H](CCC(N)=O)C(=O)N[C@@H](CCCCN)C(=O)N[C@@H](CC(C)C)C(=O)N[C@@H](C)C(=O)N[C@@H](Cc2c[nH]cn2)C(=O)N[C@@H](CCC(N)=O)C(=O)N[C@H](C(=O)N[C@@H](Cc2ccc(O)cc2)C(=O)N[C@@H](CCC(N)=O)C(=O)N[C@@H](Cc2ccccc2)C(=O)N[C@H](C(=O)N[C@@H](CC(=O)O)C(=O)N[C@@H](CCCCN)C(=O)N[C@@H](CC(=O)O)C(=O)N[C@@H](CCCCN)C(=O)N[C@@H](CC(=O)O)C(=O)N[C@@H](CC(N)=O)C(=O)N[C@H](C(=O)N[C@@H](CC(=O)O)C(=O)N2CCC[C@H]2C(=O)N[C@@H](CO)C(=O)N[C@@H](CO)C(=O)N2CCC[C@H]2C(=O)N[C@@H](Cc2c[nH]cn2)C(=O)N[C@@H](CO)C(=O)N[C@@H](Cc2ccc(O)cc2)C(N)=O)C(C)C)[C@@H](C)O)[C@@H](C)CC)C(C)C)[C@@H](C)O)NC(=O)[C@H]([C@@H](C)O)NC(=O)CNC(=O)[C@H](Cc2ccccc2)NC(=O)[C@H](CCCNC(=N)N)NC1=O` [SEQ ID NO: 94], the EC50 at CLR/RAMP2 receptor was 1.3 nM; on CLR/RAMP1 receptor it was 11 nM.
